Test results reported in paper PMC4507786.

By UniProt entry, the sequences of proteins in these tests, tags left out. Residues count along the entry.
UniProt P21580, 590-635: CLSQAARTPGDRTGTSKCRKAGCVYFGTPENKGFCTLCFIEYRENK

Biological target: A20 ZnF4 590-635 (Homo sapiens) (UniProt P21580)
Test: NMR

K63-linked diubiquitin (K63-Ub2) (from UniProt P0CG48)
Kd: 384 µM
